# Data from patent US20260166045A1, “COMBINATION THERAPY COMPRISING GSPT1-DIRECTED MOLECULAR GLUE DEGRADERS AND PI3K/AKT/mTOR PATHWAY INHIBITORS” (Monte Rosa Therapeutics, Inc., priority 2022, published 2026).
# How the values were obtained:
# Test in all cases: CTG viability, 11x11 concentration matrix, Loewe synergy (NSCLC)
# Conditions in all cases: inhibitor combined with compound 1-1 (0.1 nM to 3.16 uM), 11x11 matrix, 72 hours
# EBC-1 cell line = tested on: EBC-1 cell line
# ABC-1 cell line = tested on: ABC-1 cell line
# NCI-H441 cell line = tested on: NCI-H441 cell line
# NCI-H1770 cell line = tested on: NCI-H1770 cell line
# NCI-H2106 cell line = tested on: NCI-H2106 cell line
# NCI-H2023 cell line = tested on: NCI-H2023 cell line
SMILES,"Mean Loewe synergy score, EBC1 (EBC-1 cell line)","Mean Loewe synergy score, ABC1 (ABC-1 cell line)","Mean Loewe synergy score, NCI-H441 (NCI-H441 cell line)","Mean Loewe synergy score, NCI-H1770 (NCI-H1770 cell line)","Mean Loewe synergy score, NCI-H2106 (NCI-H2106 cell line)","Mean Loewe synergy score, NCI-H2023 (NCI-H2023 cell line)"
"Cc1nc(NC(=O)N2CCC[C@H]2C(N)=O)sc1-c1ccnc(C(C)(C)C(F)(F)F)c1 [Alpelisib, (2S)-1-N-[4-methyl-5-[2-(1,1,1-trifluoro-2-methylpropan-2-yl)pyridin-4-yl]-1,3-thiazol-2-yl]pyrrolidine-1,2-dicarboxamide]",0.38,4.95,5.23,1.7,−0.51,1.1
"Nc1cc(C(F)(F)F)c(-c2cc(N3CCOCC3)nc(N3CCOCC3)n2)cn1 [buparlisib, 5-(2,6-dimorpholin-4-ylpyrimidin-4-yl)-4-(trifluoromethyl)pyridin-2-amine]",3.27,1.14,0.24,0.21,−0.48,2.5
"NC1(C(=O)N[C@@H](CCO)c2ccc(Cl)cc2)CCN(c2ncnc3[nH]ccc23)CC1 [Capivasertib, 4-amino-N-[(1S)-1-(4-chlorophenyl)-3-hydroxypropyl]-1-(7H-pyrrolo[2,3-d]pyrimidin-4-yl)piperidine-4-carboxamide]",4.03,5.4,4.4,3.31,3.77,3.86
